“And” between values parts separate entries of the source, which are not always exact repeats. Equal entries are not always repeated. “Also recorded” adds a separate entry of the source.
Key:
[1] = test system: MCL neuropeptide concentration (SP, CGRP, NPY, VIP); assay: Neuropeptides in MCL after capsaicin (RIA, immunofluorescence); format: in vivo, rat
Description: Into Groups 1 (n=6 animals) and Group 3 (n=9 animals), capsaicin (50 mg/kg/day; prepared by emulsification in 10% Tween 80 and 10% ethanol in sterile 0.9% saline) was injected subcutaneously on a daily basis for three consecutive days. Injections were made into a site between the scapulae. Since administration of capsaicin causes neuropeptide release and pain, the all injections were given under general anesthesia with maintenance of general anesthesia for thirty minutes after injection. Bupivicaine was also administered subcutaneously at the site of the capsaicin injection. Furthermore, to counteract any respiratory complications that could arise due to the administration of capsaicin, every animal also received an intraperitoneal injection of atropine (0.2 mg/kg), and terbutaline (0.2 mg/kg) fifteen minutes prior to capsaicin injection. Into Group 2 (n=6 animals) and Group 4 (n=9 animals), a similar volume of sterile saline was injected via the same method. All other medications were given as in the treated groups. There were no signs of infection, discomfort, or unusual behavior in the treated rats. On the third day of capsaicin or control treatment, rats in Groups 3 and 4 underwent complete rupture of one MCL. Contralateral legs were used as sham controls. […]
Neuropeptide Radioimmunoassay: Four MCLs from all groups were used for quantification of neuropeptide concentrations via RIA. […]

[2] = test system: ruptured MCL of a FNT rat; assay: Local neuropeptide delivery to ruptured MCL of femoral nerve transected (FNT) rats: mechanical testing, histomorphology; format: in vivo
Excerpt: Surgical Procedure: Thirteen female Wistar rats (278 g to 315 g) were divided into two groups: femoral nerve transection (FNT) or sham control. All rats were anesthetized with isofluorane (isofluorane 0.5-3%). […] Skin covering the anterior inguinal region was shaved and prepared for surgery. A skin incision approximately 15 mm long was made and the fascia distal to the inguinal was incised. The femoral artery, vein, and nerve were exposed and the femoral nerve was isolated and transected (with removal of a 5 mm segment of the nerve) using 3-0 dexon suture. The fascia and skin were closed in two layers with 3-0 continuous dexon suture. Immediately following FNT, rats from each group (n=4 FNT; n=3 controls) underwent a complete surgical rupture of the MCL to one knee. The contra-lateral knee underwent sham surgery. Two weeks post-knee surgery, rats were sacrificed using an overdose of pentobarbitone (150 mg/kg).
Local delivery of NPs and NP inhibitors is important to identify the specific roles of individual NPs on healing tissues. An animal model for the local delivery of NPs has been developed and is presented in this Example. Briefly, NP infused mini-osmotic pumps were implanted subcutaneously into the back of rats. A small catheter running from the pump to an intramuscular space above the MCL was secured to the rat. […]

healing MCL = assay: Local neuropeptide delivery to normally innervated healing MCL: mechanical testing, histomorphology; format: in vivo, rat
Description: Animal Model and Surgery: Forty female Wistar rats (200-250 g) were divided into five groups. To each group, one of the following neuropeptide solutions was delivered to the intramuscular space above a healing MCL: SP (75 pg/100 μl); CGRP (10 pg/100 μl); NPY (65 pg/100 μl); VIP (100 pg/100 μl); and a combination of NPY and VIP (NPY 65 pg/100 μl; VIP 100 pg/100 μl).
All rats underwent bilateral MCL rupture. Neuropeptides were then delivered ruptured MCLs unilaterally. Neuropeptide infused mini-osmotic pumps (Alzet Corp.) were implanted subcutaneously into the back of each rat. A small catheter running from the pump was run to an intramuscular space above the MCL and was secured. Within minutes of surgical intervention, all rats recovered and had normal movement and behavior (grooming, feeding, etc.).
Mechanical Testing: Mechanical testing was performed as described in Chapter 2. Briefly, animal hind limbs from all groups (n=5 for all groups) were disarticulated at the hip joint and stored at −80° C. until testing. On the day of testing, MCLs including intact femoral and tibial bone sections were excised for ex vivo testing. Ligament thickness and width was measured optically, and MCL area was estimated with elliptical geometry. For strain measurements, optical markers were placed onto the ligament tissue near the insertion sites. A small preload of 0.1N was applied to the ligaments in order to obtain a uniform starting point. The ligaments were then preconditioned to 1% strain for 10 cycles. After preconditioning, ligaments were pulled to failure at a rate of 10% per second.
Tissue displacement was obtained using video dimensional analysis using equations (1) and (2) supra. The mechanical properties that were examined in this study were maximum force, ultimate stress, strain at failure, elastic modulus, and area. Statistical analysis was performed using paired ttests to compare each treated MCL to its contralateral control (alpha=0.05).
Ligaments were immediately fixed in formalin fixative for three days at room temperature. Specimens were embedded in paraffin, sectioned (6 μm), mounted on slides, and stained with hematoxylin and eosin (H&E).

[3] = test system: bovine articular chondrocytes; assay: Bovine chondrocytes proliferation assay (CellTiter 96 AQueous One); format: cell-based; conditions: CGRP 100 pg/ml, NPY 50 ng/ml, SP 500 pg/ml, VIP 1 ng/ml
Description: (§1) Cartilage chunks were then digested at 37° C. in DMEM containing 0.05% hyaluronidase for 30 minutes, followed by 0.05% collagenase digestion overnight. The digests were filtered through 40-micron nylon mesh and centrifuged at 600×g for 20 minutes. The cell pellets were then resuspended in DMEM and counted using a hemacytometer.
(§2) Cells were plated at 1×10^5 cells/well in 12-well plates (n=9) for proteoglycan assays and at 2×10^4 cells/well in 96-well plates (n=16) for proliferation assays. The culture volumes were 1 ml/well in 12-well plates and 100 μl/well in 96-well plates.
The plates were incubated at 37° C. in a humidified CO2 incubator for 3 days to allow the cells to recover from the harvesting procedure.
The media were then changed to serum-free (i.e., 0.1% BSA) DMEM containing neuropeptides at the following concentrations: (a) control; (b) CGRP (100 pg/ml); (c) NPY 50 ng/ml; (d) SP (500 pg/ml); and (e) VIP (1 ng/ml).
(§3) On Day 3 of treatment, 20 μl of CellTiter 96® AQueous One Solution Cell Proliferation Assay (Promega Corporation, Madison, Wis.) was added to each well of the 96-well cultures for 60 minutes, and cells in the 12-well plates were digested with 0.125 units of papain/well overnight. After the 60-minute incubation, the absorbance of the color generated by the cells in the 96-well plates was measured at wavelength 490 nm. […]

[4] = test system: bovine articular chondrocytes; assay: Bovine chondrocytes glycosaminoglycan assay (DMMB); format: cell-based; conditions: CGRP 100 pg/ml; Day 3 of treatment; individual wells
Description: as §1, §2
The plates were incubated at 37° C. in a humidified CO2 incubator for 3 days to allow the cells to recover from the harvesting procedure. […]
as §3
Following papain digestion of the cultures in 12-well plates, the amount of glycosaminoglycan (representative of proteoglycans) in each well was measured using the dimethylmethylene blue (DMMB) dye-binding assay. The results were statistically analyzed and plotted. […]

[5] = test system: Bovine nucleus pulposus cells; assay: Bovine nucleus pulposus (intervertebral disc) cell proliferation; format: cell-based; conditions: CGRP 10 ng/ml, NPY (mcg/ml, SP 5 mcg/ml); day 1, day 2, day 3
Description: Bovine calf spines and femoral condyles were obtained from a slaughterhouse and freshly transported to the laboratory. Nucleus pulposus tissue was carefully dissected, avoiding annular and endplate cartilage tissues, from each disc. Articular cartilage from femoral condyles was dissected in the same manner. […] Cells were harvested by overnight digestion with hyaluronidase and collagenase, followed by filtration. Cells were plated at a density of 1×10^5 cells/ml and incubated at 37° C. in 5% CO2 and 95% air in the presence of each neuropeptide or media only (control). At various time points in growth, cells were collected for proliferation and glycosaminoglycan (GAG) production assays. Varying concentrations of NPs were examined.
Well established colorimetric and luminescent assays (CellTiter 96® AQueous Non-radioactive Cell Proliferation and CellTiter-Glo® Luminescent Cell Viability Assays, Promega, Madison, Wis.) were used to quantify the effect of each NP on cell proliferation. In addition, corresponding cell cultures during growth were digested with papain to release glycosaminoglycans (GAGs). Dimethyl methylene blue (DMMB) colorimetric assays were used to quantify the amount of GAGs in each culture.
Multiple samples for test and control groups were performed simultaneously. […]

[6] = Example 7, two weeks of healing
[7] = Example 7: normally innervated rats, bilateral MCL rupture, mini-osmotic pump (SP 75, CGRP 10, NPY 65, VIP 100 pg/100 μl), two weeks of healing

Compound	concentrations of NPY or VIP in intact MCLs ([1]; Group 1: intact MCL, capsaicin treated)	immunofluorescent labeling of neuropeptides in ligaments ([1]; Group 1 and Group 3 ligaments after capsaicin treatment)	histomorphology (H&E) of healing MCL ([2]; SP 75 pg/100 μl or CGRP 10 pg/100, two weeks)	mechanical strength of healing MCL (in words) ([2]; local delivery of SP or CGRP, two weeks of healing)	histomorphology (H&E) of healing MCL (healing MCL; [6])	mechanical strength / healing of MCL (in words) (healing MCL; [6])	failure force (healing MCL; [7]) [N]	ultimate stress (healing MCL; [7]) [MPa]	proliferation of articular chondrocytes compared to controls (in words) [3]	Glycosaminoglycan Assay [4]	disc cell proliferation compared to controls [5]
COc1cc(CNC(=O)CCCC/C=C/C(C)C)ccc1O [capsaicin]	No changes	disappearance of SP and CGRP									
calcitonin gene-related peptide [CGRP]			remained disorganized	No mechanical changes	highly disorganized	weakening in mechanical strength; also recorded: three failed to fully heal	4.0±5.8	1.8±2.5	stimulate proliferation	7.147 μg/dish and 8.873 μg/dish and 7.601 μg/dish and 6.783 μg/dish and 6.965 μg/dish and 5.512 μg/dish and 7.51 μg/dish and 9.691 μg/dish (2×)	stimulate disc cell proliferation

— US20060247156A1, “Use of neuropeptides for ligament, cartilage, and bone healing” (priority 2004, published 2006)
